Measurements published in PubChem BioAssay (Tox21).
“And” between values parts separate entries of the source, which are not always exact repeats. Equal entries are not always repeated. These results got no clear call from the source, so the numbers are uncertain. Unless noted, the call rests on the fitted dose curve.

Sequences of proteins named here, by UniProt entry; tags and fusion partners are left off.
UniProt P28223, whole entry, looked up: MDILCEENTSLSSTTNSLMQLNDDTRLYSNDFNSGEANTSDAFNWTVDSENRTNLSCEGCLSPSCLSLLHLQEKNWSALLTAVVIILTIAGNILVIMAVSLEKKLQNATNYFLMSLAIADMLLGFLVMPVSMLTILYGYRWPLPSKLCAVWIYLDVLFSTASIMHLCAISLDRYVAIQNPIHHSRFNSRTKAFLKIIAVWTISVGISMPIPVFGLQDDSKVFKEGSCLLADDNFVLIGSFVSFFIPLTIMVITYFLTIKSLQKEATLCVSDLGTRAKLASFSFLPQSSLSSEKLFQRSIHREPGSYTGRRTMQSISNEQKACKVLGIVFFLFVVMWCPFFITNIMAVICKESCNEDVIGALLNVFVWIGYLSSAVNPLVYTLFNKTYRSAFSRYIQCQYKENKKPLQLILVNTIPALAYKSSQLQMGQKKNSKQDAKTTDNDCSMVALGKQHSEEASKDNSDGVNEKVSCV

System: not listed separately
Assay: p53 small molecule agonists, cell-based qHTS assay (AID 1963582; active means well fitted activation curve with a large enough effect in the signal ratio in the repeat runs, not every such curve was filed as active; inconclusive means weak or mixed curves; the % refers to the signal ratio)
Conditions: HCT-116 p53RE-bla reporter, beta-lactamase FRET ratio, 16 h
Excerpt: (§1) National Center for Advancing Translational Sciences [NCATS]
(§2) Division of Preclinical Innovation [DPI]
(§3) U.S. Environmental Protection Agency [EPA]
(§4) National Institutes of Environmental Health Sciences [NIEHS]
(§5) National Toxicology Program [NTP]
(§6) U.S. Food and Drug Administration [FDA]
p53, a tumor suppressor protein, is activated following cellular insult, including DNA damage and other cellular stresses. The activation of p53 regulates cell fate by inducing DNA repair, cell cycle arrest, apoptosis, or cellular senescence. The activation of p53, therefore, is a good indicator of DNA damage and other cellular stresses. […] The activation of the reporter gene under culture conditions can be detected by fluorescence intensity. This cell line was used to screen the Tox21 10K compound library in a 1536-well plate format and to identify agonists that activate the p53 signaling pathway.
(§7) Tox21 Assay Protocol Summary:
The p53RE-bla cells were dispensed at 4,000 cells/5 ul/well in 1536-well black wall/clear bottom plates using a Multidrop dispenser. After the assay plates were incubated at a 37 C/5% CO2 incubator for 5 hours, 23 nL of compounds dissolved in DMSO, positive controls or DMSO only was transferred to the assay plate by a pin tool. The plates were incubated at 37 C for 16 hours. After 1 uL of LiveBLAzerTM B/G FRET substrate was added using a Flying Reagent Dispenser, the plates were incubated at room temperature for 2 hours, and fluorescence intensity was measured by an Envision plate reader.
Potency means the concentration at half of the fitted maximal effect.

Structure (SMILES)	Potency
O=[P+](Oc1ccccc1)Oc1ccccc1	inconclusive: 0.406 µM
Cc1cc([N+](=O)[O-])c(O)c([N+](=O)[O-])c1	inconclusive: 11.6 µM
O=C1C2CC=CCC2C(=O)N1SC(Cl)(Cl)C(Cl)Cl (configuration not stated)	inconclusive: 18.3 µM and inconclusive: 40.8 µM
CN(N=O)C(=N)N[N+](=O)[O-]	inconclusive: 51 µM
Cc1cc([N+](=O)[O-])cc([N+](=O)[O-])c1O	inconclusive: 5.13 µM and inconclusive: 2.56 µM

Target: 5-hydroxytryptamine receptor 2A (Homo sapiens) (UniProt P28223)
Assay: 5-hydroxytryptamine receptor 2A (HTR2A) small molecule antagonists, cell-based qHTS assay (AID 1963586); further: nearly all actives have a fitted effect of over 45% in size
Conditions: HTR2A-CHO cells, DOI-induced calcium flux, fluorescence
Excerpt: as §1, §2, §3, §4, §5, §6
The HTR2A receptor is a subtype of the 5-HT2 receptor that belongs to the serotonin receptor family and is a G protein-coupled receptor (GPCR). The HTR2A-CHO cell line stably expressing human 5-hydroxytryptamine receptor 2A (HTR2A) can be used for screening antagonists of interactions between 5-HT2 and its ligands. The HTR2A-CHO calcium flux assay is a homogeneous fluorescence-based assay for detecting the intracellular calcium level using FDSS kinetic plate reader system.
as §7
HTR2A-CHO cells were dispensed at 2000 cells/3uL/well in 1536-well black-clear bottom plates using a Multidrop Dispenser. After the assay plates were incubated at a 37 C/5% CO2 incubator for 18 h, 3 uL of Dye Loading Buffer was transferred to the assay plate by a Flying Reagent Dispenser. The assay plates were incubated at 37 C for 1h. For antagonist mode, 23 nL of compounds dissolved in DMSO, positive controls or DMSO only was transferred to the assay plate by a pin tool. After 5 min incubation at room temperature, 1.5 uL of 4-Iodo-2,5-dimethoxy-alpha-methylbenzeneethanamine hydrochloride (DOI) at 4nM was added to each well. The fluorescence intensity in the plates was measured using FDSS 7000EX kinetic plate reader for 3 min at 1 sec intervals.

Structure (SMILES)	Potency
NC(=O)Nc1ccc([As](=O)(O)O)cc1	inconclusive: 23.1 µM
CN(C(=O)Cc1ccc(Cl)c(Cl)c1)[C@H]1CC[C@@]2(CCCO2)C[C@@H]1N1CCCC1	inconclusive: 0.729 µM
CCNC(C)Cc1ccc2c(c1)OCO2 (configuration not stated)	inconclusive: 9.01 µM
Cc1cc([N+](=O)[O-])cc([N+](=O)[O-])c1O	inconclusive: 21.1 µM

Target: 5-hydroxytryptamine receptor 2A (Homo sapiens) (UniProt P28223)
Assay: 5-hydroxytryptamine receptor 2A (HTR2A) small molecule agonists, cell-based qHTS assay (AID 1963587); further: nearly all actives have a fitted effect of over 30% in size
Conditions: HTR2A-CHO cells, calcium flux fluorescence, agonist mode
Procedure, shortened: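 HTR2A-CHO cells, plated 18 h at 37 C/5% CO2, dye-loaded 1 h at 37 C; compounds in DMSO added by pin tool (agonist mode). Intracellular calcium flux read as kinetic fluorescence on FDSS over 2 min at 1 s intervals.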

Structure (SMILES)	Potency
Cc1cc([N+](=O)[O-])c(O)c([N+](=O)[O-])c1	inconclusive: 49.5 µM
O=[N+]([O-])c1ccc([N+](=O)[O-])cc1	inconclusive: 15.5 µM
Cc1cc([N+](=O)[O-])cc([N+](=O)[O-])c1O	inconclusive: 1.95 µM
